From PubChem BioAssay AID894 (National Center for Advancing Translational Sciences (NCATS), 2007)
The list shows a part of the results, in another mix than the full data. Inconclusive results are not listed. Activity calls are given as the source filed them. Calls follow the shape of the dose curve; as a rule, active = well fitted inhibition curve with a large enough effect (not every such curve was filed as active); inconclusive = small, poorly fitted or top-dose-only effect, or another doubt; inactive = no such curve, though single readings can be large or run the other way.

Chains of the proteins cited; added tags and fusions are not shown.
UniProt P15428, whole entry: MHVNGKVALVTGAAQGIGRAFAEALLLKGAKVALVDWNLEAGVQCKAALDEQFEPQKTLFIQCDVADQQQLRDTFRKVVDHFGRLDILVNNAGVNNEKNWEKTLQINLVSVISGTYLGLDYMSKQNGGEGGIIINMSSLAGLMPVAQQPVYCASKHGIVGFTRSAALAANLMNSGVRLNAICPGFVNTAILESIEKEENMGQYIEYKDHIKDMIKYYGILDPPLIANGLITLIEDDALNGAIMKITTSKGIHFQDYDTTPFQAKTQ

Molecular target: 15-hydroxyprostaglandin dehydrogenase [NAD(+)] (Homo sapiens) (UniProt P15428)
Experiment: qHTS Assay for Inhibitors of HPGD (15-Hydroxyprostaglandin Dehydrogenase); also: test concentration not given here
Settings: purified HPGD, NADH fluorescence kinetic, PGE2 substrate; hits give low values
% is scaled to controls: 0 for no effect and ±100 for the full control effect.

SMILES | activity change, negative = inhibition
NC1CCCCC1.NP(=O)(O)N(CCCl)CCCl | inactive: 0.0456%
N/C(=N\O)c1c(N)no[n+]1[O-] | inactive: -7.34%
